Measured values as given in patent US20200299675A1 (published 2020).

Columns and labels:
Experiment in all cases: ELISA
[1] = molecular target: KKD-m8
[2] = molecular target: KKD-m3
[3] = molecular target: KKD(6X)-m3
[4] = molecular target: KKD(6X)-m1
[5] = molecular target: KKD(6X)-m5
[6] = molecular target: KKD(6X)-m4

B1: Keap1 Kelch Domain (KKD) (other)
chain: APKVGRLIYTAGGYFRQSLSYLEAYNPSDGTWLRLADLQVPRSGLAGCVVGGLLYAVGGRNNSPDGNTDSSALDCYNPMTNQWSPCAPMSVPRNRIGVGVIDGHIYAVGGSHGCIHHNSVERYEPERDEWHLVAPMLTRRIGVGVAVLNRLLYAVGGFDGTNRLNSAECYYPERNEWRMITAMNTIRSGAGVCVLHNCIYAAGGYDGQDQLNSVERYDVETETWTFVAPMKHRRSALGITVHQGRIYVLGGYDGHTFLDSVECYDPDTDTWSEVTRMTSGRSGVGVAVT
B1 gave a Kd [1] of over 5 µM, a Kd [2] of 0.425 µM and a Kd [3] of 1.81 µM. For the same binder, the Kd [4] was 0.043 µM, the Kd [5] was 6.7 µM and the Kd [6] was 4.02 µM.
